Values of other authors, collected in patent publication US8242152B2, “Use of 4-[(4-thiazolyl)phenoxy]alkoxy-benzamidine derivatives for the prophylaxis and treatment of osteoporosis” (Dong Wha Pharmaceutical Co., Ltd., priority 2001, dated 2012).
Where two headings read alike, the source gives them in different places.

The chains behind the UniProt entries cited, without tags or fusion partners. Where a name states a change or a piece, a line headed by the entry shows the natural chain unless it says otherwise.
UniProt Q15722: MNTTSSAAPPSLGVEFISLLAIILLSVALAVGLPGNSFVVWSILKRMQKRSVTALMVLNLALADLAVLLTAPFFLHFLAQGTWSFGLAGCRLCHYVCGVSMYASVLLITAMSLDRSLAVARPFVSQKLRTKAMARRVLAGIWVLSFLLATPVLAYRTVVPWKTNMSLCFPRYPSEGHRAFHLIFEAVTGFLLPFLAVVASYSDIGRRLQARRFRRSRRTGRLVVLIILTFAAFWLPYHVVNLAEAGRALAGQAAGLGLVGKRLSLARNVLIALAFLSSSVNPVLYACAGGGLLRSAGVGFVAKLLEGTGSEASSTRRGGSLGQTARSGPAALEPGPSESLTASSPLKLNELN

Biological target: LTB4 receptor (Homo sapiens, UniProt Q15722)
Parameters: endogenous in cells; host or cells: human neutrophils (PMN) purified from fresh blood
Conditions: cited from earlier work

For “4-[5-[4-(aminoiminomethyl)phenoxy]pentoxy]-3-methoxy-N,N-bis(1-methylethyl)benzamide maleic acid [CGS-25019C]”, the “Inhibition (%) of LTB4 receptor binding” value (10 nM) is listed as 25%, the “Inhibition (%) of LTB4 receptor binding” value (100 nM) is listed as 84% and the “Inhibition (%) of LTB4 receptor binding” value (1 uM) is listed as 99%. For the same substance, the IC50 (read-out: IC50 (nM) LTB4 receptor binding) was 41.2 nM.
